This note sets out measurements from US7524847B2, “Fused 1,3-dihydro-imidazole ring compounds” (Eisai R&D Management Co., Ltd., priority 2002, dated 2009).

Chains of the proteins cited; added tags and fusions are not shown. Lines headed by an entry give the natural chain unless they say otherwise; changes in a name come on top.
UniProt P22411: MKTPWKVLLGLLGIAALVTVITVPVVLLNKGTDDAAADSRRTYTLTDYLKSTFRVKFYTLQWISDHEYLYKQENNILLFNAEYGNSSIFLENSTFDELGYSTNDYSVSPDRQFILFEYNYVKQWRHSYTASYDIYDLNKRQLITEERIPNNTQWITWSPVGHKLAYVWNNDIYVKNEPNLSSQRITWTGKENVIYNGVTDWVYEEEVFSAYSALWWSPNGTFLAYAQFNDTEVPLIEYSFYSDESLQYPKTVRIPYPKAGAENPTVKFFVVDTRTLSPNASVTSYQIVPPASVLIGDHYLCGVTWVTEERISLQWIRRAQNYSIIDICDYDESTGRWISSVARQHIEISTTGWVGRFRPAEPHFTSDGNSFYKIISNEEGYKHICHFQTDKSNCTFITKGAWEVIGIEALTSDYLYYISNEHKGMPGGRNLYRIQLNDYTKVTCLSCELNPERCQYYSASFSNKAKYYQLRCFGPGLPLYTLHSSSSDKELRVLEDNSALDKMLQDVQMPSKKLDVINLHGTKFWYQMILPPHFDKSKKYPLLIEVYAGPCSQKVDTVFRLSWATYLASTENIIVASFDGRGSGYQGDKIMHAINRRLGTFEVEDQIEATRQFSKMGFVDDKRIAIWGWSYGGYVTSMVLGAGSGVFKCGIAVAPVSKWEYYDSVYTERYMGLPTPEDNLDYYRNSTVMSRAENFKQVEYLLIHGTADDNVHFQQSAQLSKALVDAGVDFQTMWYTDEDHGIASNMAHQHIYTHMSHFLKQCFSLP

This test addresses T1, DPP-IV obtained from pig kidney (Sus scrofa, UniProt P22411).
T1 construct: DPP-IV obtained from pig kidney; from tissue; host or cells: pig kidney
Put plainly: Measurement of DPPIV-inhibiting activity (in vitro experiment). Format: biochemical. As for the experimental part: DPP-IV obtained from pig kidney was dissolved in a reaction buffer (50 mM Tris-HCl pH7.4, 0.1% BSA) at 10 mU/mL, and 110 μL of this was used. 15 μL of the drug obtained from the aforementioned Examples was added, and this was incubated at room temperature for 20 minutes, and then 25 μL of a 2 mM solution of Gly-Pro-p-nitroanilide (final concentration 0.33 mM) was added to start the enzymatic reaction. The reaction time was 20 minutes, and 1 N phosphoric acid solution (25 μL) was added to stop the reaction.

`N#Cc1ccc(NCCNCC(=O)N2CCC[C@H]2C#N)nc1` [Control compound, reference compound] displayed an IC50 of 226 µM.
